Literature values as cited in article PMC4742250.
Where “and” joins values, the source holds several entries; their conditions need not be identical. Identical values can stand only once.

Biological target: Thioredoxin (Escherichia coli) [thioredoxin: P0AA25]

In the case of “T7 DNA polymerase gp5 (from UniProt P00581)”, the Kd is listed as 5 nM and 4 nM.
